Reference: article PMC11200976, “Pitavastatin Calcium Confers Fungicidal Properties to Fluconazole by Inhibiting Ubiquinone Biosynthesis and Generating Reactive Oxygen Species” (Antioxidants, 2024)

test system: C. albicans; experiment: Broth microdilution assay of synergistic lethality with 4 μg/mL FLC (recovery on drug-free YPD); settings: concentration of the compound that is synergistically lethal with 4 μg/mL FLC

Q: Which Synergistic lethal concentrations does the source give for O=C(O)C(O)C(O)C(=O)O.Oc1ccc2c(c1)CC[C@H](c1ccccc1)[C@@H]2c1ccc(OCCN2CCCC2)cc1 [Lasofoxifene (Tartrate)] here?
A: The Synergistic lethal concentrations was 100 µM.

Q: Which Synergistic lethal concentrations does the source give for CC(CN(C)C)CN1c2ccccc2Sc2ccccc21.CC(CN(C)C)CN1c2ccccc2Sc2ccccc21.O=C(O)C(O)C(O)C(=O)O (centres unmarked) [Alimemazine hemitartrate] here?
A: Its Synergistic lethal concentrations is 50 µM.

Q: Which Synergistic lethal concentrations does the source give for CCCCCCCC(=O)N[C@H](CN1CCCC1)[C@H](O)c1ccc2c(c1)OCCO2.CCCCCCCC(=O)N[C@H](CN1CCCC1)[C@H](O)c1ccc2c(c1)OCCO2.O=C(O)C(O)C(O)C(=O)O [Eliglustat (hemitartrate)] here?
A: Its Synergistic lethal concentrations is 100 µM.

Q: Which Synergistic lethal concentrations does the source give for CN(C)CCOc1ccc(/C(=C(/CCCl)c2ccccc2)c2ccccc2)cc1.O=C(O)CC(O)(CC(=O)O)C(=O)O [Toremifene (citrate)] here?
A: Its Synergistic lethal concentrations is 1.5625 µM.

Q: For CC(C)COc1ccc(CNC(=O)N(Cc2ccc(F)cc2)C2CCN(C)CC2)cc1.CC(C)COc1ccc(CNC(=O)N(Cc2ccc(F)cc2)C2CCN(C)CC2)cc1.O=C(O)C(O)C(O)C(=O)O [Pimavanserin tartrate], which Synergistic lethal concentrations is on record?
A: Its Synergistic lethal concentrations is 12.5 µM.
